We go through two substances from patent US11987642B2, “Bispecific HER2 and CD3 binding molecules” (MEMORIAL SLOAN KETTERING CANCER CENTER, priority 2014, dated 2024).

For one assay, the system named is U2OS osteosarcoma cells. The assay can be described thus: Proliferation assay (WST-8), U2OS. The class given is cell-based, human. The method, then: (§1) Cell proliferation was determined using an ELISA plate reader and the WST-8 kit (Dojindo technologies) following the manufacturer's instructions and using the formula: % survival rate=(Sample-Background)/(Negative control-Background). Lapatinib (MSKCC pharmacy) was ground using a mortar and pestle and suspended in DMSO as previously described. To determine statistical significance, the results were analyzed using one-way ANOVA using Prism 6.0.
U2OS cells are a HER2-positive, EGFR-positive osteosarcoma cell line (FIG. 11A).

Assay [1] relates to HeLa cervical carcinoma cells. The assay can be described thus: Proliferation assay (WST-8), HeLa. The class given is cell-based, human. Here is the method: as §1
HeLa cells are a HER2-positive, EGFR-positive cervical carcinoma cell line (FIG. 12A).
Background: Tetrazolium assays rely on reduction of a dye to a coloured formazan, in cell work by metabolically active cells.

The test system of a further assay is SCCHN cell line PCI-30. The assay is described as follows: Proliferation assay (WST-8), PCI-30. The class given is cell-based, human. Here is the method:
as §1

Assay [2] concerns HER2-positive breast carcinoma cell line, AU565. The assay can be described thus: FACS binding to tumor cells. The class given is cell-based, human. The conditions noted are these: trastuzumab vs HER2-BsAb. (In general: In flow cytometry, cells or beads pass a laser one at a time.)
For assay [3], the system named is HCC1954 breast cancer cells. The assay is described as follows: Subcutaneous HCC1954 xenograft mixed with subcutaneous PBMC. Format: in vivo, DKO mice.
The subject of another assay is MCF7 breast cancer cells. The assay is described as follows: Subcutaneous MCF7 xenograft mixed with PBMC. The class given is in vivo, DKO mice.

As for cetuximab, the “sensitivity of cells in proliferation assay” value was “resistant” in the assay on U2OS osteosarcoma cells, “pan-resistant” in assay [1] and “resistant” with SCCHN cell line PCI-30.
trastuzumab: the entries for the “sensitivity of cells in proliferation assay” value (with U2OS osteosarcoma cells; in assay [1]; with SCCHN cell line PCI-30) were “resistant”, “pan-resistant” and “resistant”, respectively. For the same substance, in assay [2], the “binding to AU565 cells” value is on record as “comparable binding”. In addition, the “tumor progression / tumor growth” value in assay [3] is “no effect”. In addition, in the assay with MCF7 breast cancer cells, the tumor progression entry is “ineffective”.
